The text below walks through data of PubChem BioAssay AID868 (SRMLSC, 2007).

A word on the inhibition: it is the drop in the measured response relative to a control, in per cent.

The list shows a part of the results, in another mix than the full data. Activity calls are given as the source filed them.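 The calls were made as follows: active = inhibition above a set limit, 3 SD over mean compound inhibition (cut at about 8.4% in these data); inactive = the rest.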

This assay is described as follows: RAM signaling blockers in budding yeast – dse1pr::URA3 reporter, 5-FOA selection, primary screen (AID 868).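 Also: 0% = DMSO-only wells with no growth and 100% = 10 µM 1-NA-PP1 full growth; inhibition rescues growth on 5-FOA so higher OD means more RAM inhibition.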 The following applies: S. cerevisiae dse1pr::URA3 reporter, 5-FOA growth OD615, 2 d; at 50 µM; stronger effect = higher value; analog-sensitive cbk1-as2 kinase mutant strain.
Regarding `Fc1ccccc1NC1CCN(Cc2ccccc2)CC1`, the inhibition is inactive: -0.13%.
Next, `CN(C)c1ccc(C(=O)NCC2(N3CCCCC3)CCCCC2)cc1`: inactive: 0.62%; `CCN1CCC(Nc2cccc(F)c2)CC1`: inactive: 0.4%; `CC(C)(C)OC(=O)N1CCC(Nc2ccccc2)CC1`: inactive: 1.97%.
The value for `CCOc1ncccc1C(=O)NCC1(N2CCOCC2)CCCCC1` was inactive: 0.11%; that for `CCC(CO)(C(=O)OC1CN2CCC1CC2)c1ccccc1` (stereo not given) was inactive: -0.4%; that for `COc1cc(OC)cc(C(=O)NCC2(N3CCOCC3)CCCCC2)c1` was inactive: 0.63%.
On to `COc1ccc(C(=O)NCC2(N3CCOCC3)CCCCC2)cc1OC`, for which the inhibition is inactive: 1.32%.
For the molecule `O=C(OC1CN2CCC1CC2)C1c2ccccc2C=Cc2ccccc21` (stereo not given), the inhibition is inactive: 1.17%.
Next, `N/C(=N\O)c1c(N)no[n+]1[O-]`: inactive: -0.27%.
Next, `N#Cc1ccc(C(=O)NCC2(N3CCCCC3)CCCCC2)cc1`: inactive: 0.93%.
The value for `c1ccc(CN2CCC(Nc3ccccc3)CC2)cc1` was inactive: 1.48%; that for `O=C(NCC1(N2CCCCC2)CCCCC1)c1cccc([N+](=O)[O-])c1` was inactive: -0.13%; that for `N#CC1(Nc2ccccc2)CCN(CCc2ccccc2)CC1` was inactive: -0.4%.
As to `CN1CCN(CCOC(=O)C(O)(c2ccccc2)c2ccccc2)CC1`, the inhibition is inactive: 1.17%.
Next, `COc1ccc(NC2CCN(C(=O)OC(C)(C)C)CC2)cc1`: inactive: -1.23%; `O=C(NCC1(N2CCOCC2)CCCCC1)c1cc(=O)[nH]c2ccccc12`: inactive: -1.25%.
Next, `COc1ccc(CN(CCCl)CCCl)cc1Cl`: inactive: -0.6%; `CN(C)c1cccc(C(=O)NCC2(N3CCCCC3)CCCCC2)c1`: inactive: 0%; `CC(C)c1ccc(NC2CCN(C(=O)OC(C)(C)C)CC2)cc1`: inactive: 0.69%.
The value for `COc1ccc(C(=O)NCC2(N3CCCCC3)CCCCC2)c(OC)c1OC` was inactive: 0.76%.
In the case of `CCOC(=O)N1CCC(Nc2ccc(OC)cc2)CC1`, the inhibition was inactive: 3.65%.
Next, `O=C(OC1CN2CCC1CC2)C1c2ccccc2Oc2ccccc21` (stereo not given): inactive: 0.67%.
The value for `O=C(NCC1(N2CCOCC2)CCCCC1)c1cc2ccccc2o1` was inactive: -1%; that for `COc1ccc(NC2CCN(CCc3ccccc3)CC2)c(OC)c1` was inactive: 1.72%.
